Target: recombinant human G9a protein (Homo sapiens, UniProt Q96KQ7)
Test: G9a inhibitory activity test (ALPHA)
Conditions: read-out: Inhibitory activity (G9a IC50 value), biotinylated histone H3 peptide (1-21), SAM
Experimental: The G9a inhibitory activity of each compound was evaluated by measuring the enzymatic activity of G9a by amplified luminescence proximity homogeneous assay (ALPHA). First, 7.5 μL of a dilution of recombinant human G9a protein (BPS Bioscience Inc., #51001) diluted to 0.05 to 0.1 nM with a Tris buffer solution (50 mM Tris-HCl [pH 9.0], 50 mM NaCl, 0.01% Tween-20, 1 mM DTT), and 0.5 μL of the test compound were added to each well of a 384-well microplate (AlphaPlate-384 Shallow Well, PerkinElmer, Inc., #6008359), mixed by vortex, and incubated at room temperature for 10 minutes. 500 nM biotinylated histone H3 peptide (1-21) (AnaSpec Inc., #61702) and 150 μM SAM (Sigma-Aldrich Co. LLC, #A7007) were mixed at 1:1 in advance, and 2 μL of the mixture was added to each well, mixed by vortex, and then incubated at room temperature for 1 hour. AlphaLISA anti-H3K9me2 acceptor beads (PerkinElmer, Inc., #AL117C) and AlphaScreen streptavidin donor beads (PerkinElmer, Inc., #6760002B) were each diluted with an epigenetic buffer (PerkinElmer, Inc., AlphaLISA Epigenetics Buffer Kit #AL008C) to a final concentration of […] after addition. These dilutions were added to the reaction solution in the dark and incubated at room temperature for 1 hour in the dark. Then, measurement was performed using the EnSpire Alpha plate reader (PerkinElmer, Inc., Waltham, Mass., USA). […]

Protein sequences, listed by entry. Tags and fused reporters are not part of them. Residues count along the entry.
UniProt Q96KQ7, 785-1210 limits assumed: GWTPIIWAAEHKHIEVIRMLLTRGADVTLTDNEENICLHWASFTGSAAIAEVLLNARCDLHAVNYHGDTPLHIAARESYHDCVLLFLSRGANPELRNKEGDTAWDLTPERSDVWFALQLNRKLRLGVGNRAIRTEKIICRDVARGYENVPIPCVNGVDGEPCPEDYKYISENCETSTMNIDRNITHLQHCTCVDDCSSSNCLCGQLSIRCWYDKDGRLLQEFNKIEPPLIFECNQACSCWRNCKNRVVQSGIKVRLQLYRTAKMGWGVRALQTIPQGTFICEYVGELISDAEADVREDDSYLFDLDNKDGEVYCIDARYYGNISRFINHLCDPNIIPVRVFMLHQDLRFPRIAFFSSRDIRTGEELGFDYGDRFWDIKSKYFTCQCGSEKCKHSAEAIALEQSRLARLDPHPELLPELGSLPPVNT

CCCCC(NC(=O)c1[nH]c2c(c1C)C(=O)CC(C)(C)C2)C(=O)Nc1ccc(OCCN(C)C)nc1 (stereo not shown)
IC50: 50 to 200 nM

Reference: patent US20230127046A1, “G9a INHIBITOR” (RIKEN, priority 2019, published 2023)
